# Test results: PubChem BioAssay AID651724 (National Center for Advancing Translational Sciences (NCATS), 2012)
# Only a part is listed here, and it is no random draw. Some results for these compounds are left out of this collection, so the calls shown say nothing about other tests. Active and inactive are the calls of the source. Cut-off read from the data, not from the text of the source: active = activity change below about -65%; inconclusive = mostly about -30% to -63%; inactive = weaker than that.
# Tested on: CtBP / adenovirus E1A interaction (AlphaScreen)
# Assay: qHTS Assay for Inhibitors of the CtBP/E1A Interaction
# Settings: AlphaScreen GST-E1A/His-CtBP binding, 1536-well; stronger effect = lower value
# Excerpt: Carboxyl-terminal binding protein (CtBP) is a co-repressor for many transcription factors. […] Our studies have shown that CtBP is overexpressed in multiple human cancers, including lung, breast, and head and neck cancers. In particular, it is over-expressed in 50% of primary lung cancer and 90% of metastatic lesions. CtBP suppresses epithelial-specific genes as well as genes critical for apoptosis, providing the underlying molecular mechanism for its role in tumorigenesis. […] Based on the above data, we hypothesize that 1) CtBP suppresses the pro-apoptotic and epithelial genes, therefore overexpressed CtBP in human cancer cells increases EMT and cancer survival; 2) decreasing CtBP's function represents a targeted therapy for lung cancer and potentially multiple cancer types. As a co-repressor, CtBP binds to E1A and other transcription factors through a conserved peptide motif to carry out its action. Inhibiting this interaction using small molecules can potentially serve as effective cancer therapeutics.
# To this end, we have developed a homogenous AlphaScreen assay targeting the CtBP/E1A interaction. We performed a large scale HTS of the Molecular Libraries Small Molecule Repository (MLSMR) to identify inhibitors of the CtBP/E1A interaction as potential anti-cancer therapeutics. Compounds identified can also be used as chemical probes to better understand the biological functions of CtBP.
# NIH Chemical Genomics Center [NCGC]
# NIH Molecular Libraries Probe Centers Network [MLPCN]
# Assay Submitter (PI): Rui Zhao, University of Colorado Denver
# The first step of the 5uL AlphaScreen assay is to dispense assay buffer (50 mM Tris, pH 8.0, 300 mM NaCl, 0.05% BSA, 0.02% Tween 20, 1 mM TCEP) into a Greiner 1536 white solid bottom microtiter plate (789175-F). Five microliters is added to Column 1, 4 uL is added to Column 2 and 3 uL is added to Columns 3 through 48. A 5X protein solution (125 nM GST-E1A protein + 125 nM His-tagged CtBP protein) is mixed and 1 uL is dispensed to Columns 3-48. Using a 1536 pintool, 23 nL of compound is transferred to the assay plate and the plate is incubated with a lid at 37 deg C in the dark for two hours. A solution of 5X AlphaScreen beads is mixed (50 ug/mL Glutathione linked donor beads + Nickel chelated acceptor beads) and 1 uL is dispensed to Columns 2-48. The assay plate is incubated for one hour, with a lid, at 37 deg C in the dark. The plate is read using a Perkin Elmer Envision using an AlphaScreen protocol.
# % is set by controls: 0 for no effect and ±100 for the full control effect.
row,SMILES,activity change
1,O=C(OC1CN2CCC1CC2)C(CO)(c1ccccc1)c1ccccc1 (configuration not stated),inactive: -0.951%
2,CN(C)c1cccc(C(=O)NCC2(N(C)C)CCCCC2)c1,inactive: -0.993%
3,CC(C)Oc1ccc(C(=O)NCC2(N(C)C)CCCCC2)cc1,inactive: -2.46%
4,O=C(OCCN1CCCC1)C(O)(c1ccccc1)c1ccccc1,inactive: 1.18%
5,COc1ccc(Br)c(C(=O)NCC2(N3CCCCC3)CCCCC2)c1,inactive: -0.968%
6,C=C(C)C#CC(O)(C(=O)OC1CCN(C)CC1)c1ccccc1 (configuration not stated),inactive: -0.678%
7,CN(C)C1(CNC(=O)c2ccc(Br)cc2)CCCCC1,inactive: -12.2%
8,O=C(NCC1(N2CCCCC2)CCCCC1)c1cccc(Cl)c1,inactive: -9.84%
9,COc1cccc(C(=O)NCC2(N3CCCCC3)CCCCC2)c1,inactive: 2.78%
10,COc1ccc(Cl)cc1C(=O)NCC1(N(C)C)CCCCC1,inactive: 9.28%
11,CN(C)c1ccc(C(=O)NCC2(N(C)C)CCCCC2)cc1,inactive: -11.2%
12,CN(C)C1CCCC1OC(=O)C(O)(c1ccccc1)c1ccccc1 (configuration not stated),inactive: 0.14%
13,CCN1CCCC(OC(=O)C2(O)c3ccccc3C=Cc3ccccc32)C1 (configuration not stated),inactive: 4.9%
14,Cc1cc(C(=O)NCC2(N3CCCCC3)CCCCC2)ccc1[N+](=O)[O-],inactive: 3.79%
15,O=C(NCC1(N2CCCCC2)CCCCC1)c1cccc(Br)c1,inactive: -0.557%
16,COc1ccc(C(=O)NCC2(N(C)C)CCCCC2)cc1,inactive: 3.67%
17,O=C(NCC1(N2CCCCC2)CCCCC1)c1cc(F)c(F)cc1Cl,inactive: 18%
18,O=C(NCC1(N2CCCCC2)CCCCC1)c1cc([N+](=O)[O-])ccc1Cl,inactive: -4.99%
19,Cc1ccc(C(=O)NCC2(N3CCCCC3)CCCCC2)cc1,inactive: -6.89%
20,CC(C)N1C(=O)CC2(CCN(CCOC(=O)C(O)(c3ccccc3)c3ccccc3)CC2)C1=O,inactive: 4.25%
21,CCN(CC)CC(C)C(C)OC(=O)C(O)(c1ccccc1)c1ccccc1 (configuration not stated),inactive: 6.36%
22,COc1cc(SC)ccc1C(=O)NCC1(N(C)C)CCCCC1,inactive: -1.4%
